Test results taken from US11793801B2, “Treatment of pain and neurological conditions” (BioCorRx, Inc., priority 2020, dated 2023).

Protein sequences, listed by entry. Tags and fused reporters are not part of them.
UniProt P35372, whole entry: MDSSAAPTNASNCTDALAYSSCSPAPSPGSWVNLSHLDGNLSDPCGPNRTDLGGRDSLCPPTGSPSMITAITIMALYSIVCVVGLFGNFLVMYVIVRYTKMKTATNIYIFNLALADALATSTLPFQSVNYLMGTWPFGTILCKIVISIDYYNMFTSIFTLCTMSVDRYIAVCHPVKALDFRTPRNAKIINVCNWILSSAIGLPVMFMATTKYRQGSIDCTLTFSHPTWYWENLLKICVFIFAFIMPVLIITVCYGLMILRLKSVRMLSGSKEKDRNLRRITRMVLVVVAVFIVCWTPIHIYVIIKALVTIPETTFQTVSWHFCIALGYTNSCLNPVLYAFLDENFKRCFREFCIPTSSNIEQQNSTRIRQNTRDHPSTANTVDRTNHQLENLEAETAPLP

Molecular target: mu opiate receptor (Homo sapiens, UniProt P35372)
Test: antagonism of the effects of fentanyl
Conditions: effect induced by fentanyl through the mu opiate receptor

CCC(=O)NC1CC(C)N(CCc2ccccc2)CC1C (centres unmarked) [Compound 1, N-[2,5-dimethyl-1-(2-phenylethyl)piperidin-4-yl]propanamide]
antagonism of fentanyl-induced analgesia: potent antagonist
antagonism of fentanyl-induced respiratory depression: potent antagonist

This is a selection: effects in other tests are not listed, and their absence says nothing.
